This is a selection; strong and weak results do not stand in their true shares. Active and inactive are the calls of the source.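 How the source made its calls: active means inhibition above the screen mean inhibition plus 3 SD, computed separately per campaign (cut at about 18% in these data); inactive means the rest.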

For the test, the system named is Fam108B (ABHD17B) serine hydrolase [Mus musculus]. The test is described as follows: inhibition of Fam108B (ABHD17B) hydrolase – biochemical, fluorescence polarization, counter-screen for RBBP9 inhibitor project, primary screen (AID 1947).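 Further: inhibitors lower polarization as less probe binds the enzyme.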 As to conditions: recombinant Fam108B, FP-Rh probe fluorescence polarization; at 9.51 µM; hits give high values. (In fluorescence polarisation assays a small probe gives low polarisation when free and higher when bound to something large.)
For the compound `CN1CCN(CCOC(=O)C(O)(c2ccccc2)c2ccccc2)CC1`, the inhibition is inactive: 1.14%.

Take `COc1ccc(NC2CCN(C(=O)OC(C)(C)C)CC2)cc1`: the inhibition was inactive: 1.83%.

Regarding `COc1cc(C(=O)NCC2(N3CCCCC3)CCCCC2)ccc1OC(F)F`, the inhibition was inactive: -0.73%.

With `O=C(NCC1(N2CCOCC2)CCCCC1)c1cc(=O)[nH]c2ccccc12`, the inhibition is inactive: 6.43%.

For the compound `O=C(NCC1(N2CCCCC2)CCCCC1)c1cccc(C(F)(F)F)c1`, the inhibition was inactive: 3.61%.

In the case of `O=C(NCC1(N2CCCCC2)CCCCC1)c1cccc([N+](=O)[O-])c1`, the inhibition was inactive: -3.07%.

With `N#CC1(Nc2ccccc2)CCN(CCc2ccccc2)CC1`, the inhibition was inactive: 5.4%.

As for `CCN1CCC(Nc2ccc(Cl)cc2)CC1`, the inhibition was inactive: -0.83%.

On to `O=C(NCC1(N2CCCCC2)CCCCC1)c1ccc(OC(F)F)cc1`, for which the inhibition was inactive: -2.24%.

`CN1CCC(Nc2cccc(F)c2)CC1`: the inhibition is inactive: 0.48%.

On to `COc1cc(OC)c(C(=O)NCC2(N(C)C)CCCCC2)cc1OC`, for which the inhibition is inactive: -1.21%.

Turning to `CN(C)c1cccc(C(=O)NCC2(N3CCCCC3)CCCCC2)c1`, the inhibition was inactive: -1.01%.

`COc1ccc(CN(CCCl)CCCl)cc1Cl`: the inhibition is inactive: 0.22%.

`CC(C)c1ccc(NC2CCN(C(=O)OC(C)(C)C)CC2)cc1`: the inhibition is inactive: 4.74%.

As to `CCOC(=O)N1CCC(Nc2ccc(OC)cc2)CC1`, the inhibition was inactive: -0.95%.

With `N#CC1(Nc2ccccc2)CCN(Cc2ccccc2)CC1`, the inhibition is inactive: -0.63%.

Take `O=C(OC1CN2CCC1CC2)C1c2ccccc2Oc2ccccc21` (stereo unspecified): the inhibition was inactive: 2.84%.

Regarding `O=C(NCC1(N2CCOCC2)CCCCC1)c1cc2ccccc2o1`, the inhibition was inactive: 1.71%.

With `Cc1cc(C)cc(N(C(=O)c2ccccc2)C2CCN(C(=O)OC(C)(C)C)CC2)c1`, the inhibition was inactive: 2.1%.

Consider `O=C(NCC1(N2CCCCC2)CCCCC1)c1ccc(Cl)nc1`, for which the inhibition was inactive: -2.27%.

Turning to `CSc1ccccc1C(=O)NCC1(N2CCCCC2)CCCCC1`, the inhibition is inactive: -0.7%.

Consider `O=C(NCC1(N2CCCCC2)CCCCC1)c1cccs1`, for which the inhibition was inactive: -1.74%.

As to `O=C(NCC1(N2CCCCC2)CCCCC1)c1ccc(=O)[nH]c1`, the inhibition is inactive: 4.63%.

As to `COc1ccc(C(=O)NCC2(N3CCCCC3)CCCCC2)c(OC)c1OC`, the inhibition was inactive: -4.08%.

Regarding `CC(C)(C)OC(=O)N1CCC(N(C(=O)c2ccccc2)c2ccc(F)cc2)CC1`, the inhibition is inactive: 1.15%.

Regarding `COc1ccc(C(=O)NCC2(N3CCCCC3)CCCCC2)cc1`, the inhibition was inactive: -1.04%.

As for `Cc1ccc(OCC(C)C)c(CN(CCCl)CCCl)c1`, the inhibition was inactive: 1.67%.

Consider `CCOC(=O)N1CCC(Nc2cccc(C)c2)CC1`, for which the inhibition is inactive: -5.52%.

As to `COc1ccc(NC2CCN(CCc3ccccc3)CC2)c(OC)c1`, the inhibition is inactive: -0.07%.

For `O=C(NCC1(N2CCCCC2)CCCCC1)c1ccc(F)cc1`, the inhibition was inactive: -1.35%.

`CCOc1ccc(C)cc1CN(CCCl)CCCl`: the inhibition was inactive: 0.42%.

`CN(C)c1ccc(C(=O)NCC2(N3CCCCC3)CCCCC2)cc1`: the inhibition was inactive: 2.38%.

In the case of `CCN1CCC(Nc2cccc(F)c2)CC1`, the inhibition is inactive: -4.04%.

With `Fc1ccccc1NC1CCN(Cc2ccccc2)CC1`, the inhibition is inactive: 2.1%.

With `Cc1ccc(C(=O)NCC2(N3CCCCC3)CCCCC2)o1`, the inhibition is inactive: 3.69%.

As for `COc1cc(OC)cc(C(=O)NCC2(N3CCCCC3)CCCCC2)c1`, the inhibition is inactive: 3.71%.

Turning to `CCCOc1ccc(C)cc1CN(CCCl)CCCl`, the inhibition is inactive: 0.17%.

On to `CN1CCC(Nc2ccc(Cl)cc2)CC1`, for which the inhibition is inactive: 3.61%.

In the case of `CCC(CO)(C(=O)OC1CN2CCC1CC2)c1ccccc1` (stereo unspecified), the inhibition was inactive: -1.45%.

`COc1cc(OC)cc(C(=O)NCC2(N3CCOCC3)CCCCC2)c1`: the inhibition was inactive: 2.15%.

As for `COc1cccc(C(=O)N(c2cc(C)cc(C)c2)C2CCN(C(=O)OC(C)(C)C)CC2)c1`, the inhibition is inactive: 4.64%.

Turning to `CCCOc1ccc(C(=O)NCC2(N(C)C)CCCCC2)cc1`, the inhibition is inactive: -2.75%.

`O=C(O)C1(Nc2ccccc2)CCN(Cc2ccccc2)CC1`: the inhibition was inactive: -3.67%.

Regarding `CC(C)(C)OC(=O)N1CCC(Nc2ccccc2)CC1`, the inhibition was inactive: -5.04%.

As for `CN1CCC(Nc2ccc(F)c(Cl)c2)CC1`, the inhibition was inactive: -1.6%.

For the compound `CCOc1ncccc1C(=O)NCC1(N2CCOCC2)CCCCC1`, the inhibition is inactive: 2.24%.

Regarding `CCc1cc(C(=O)NCC2(N3CCCCC3)CCCCC2)sc1C`, the inhibition is inactive: -5.14%.

As to `O=C(OC1CN2CCC1CC2)C1c2ccccc2C=Cc2ccccc21` (stereo unspecified), the inhibition is inactive: 0.7%.

For the compound `N/C(=N\O)c1c(N)no[n+]1[O-]`, the inhibition is inactive: 1.25%.

Take `CCOC(=O)N1CCC(Nc2ccc(C)cc2)CC1`: the inhibition is inactive: -1.98%.

As to `COc1ccc(C(=O)NCC2(N3CCOCC3)CCCCC2)cc1OC`, the inhibition was inactive: -2.41%.

On to `CCCN1CCC(Nc2cc(OC)cc(OC)c2)CC1`, for which the inhibition is inactive: 1.12%.

On to `c1ccc(CN2CCC(Nc3ccccc3)CC2)cc1`, for which the inhibition is inactive: -2.64%.

With `CN(C)C1(CNC(=O)c2cccc(C#N)c2)CCCCC1`, the inhibition is inactive: -0.62%.

For `CC(C)(C)OC(=O)N1CCC(N(C(=O)c2ccccc2)c2ccc(Cl)cc2)CC1`, the inhibition was inactive: 6.77%.

As to `N#Cc1ccc(C(=O)NCC2(N3CCCCC3)CCCCC2)cc1`, the inhibition was inactive: -0.57%.

By inhibition is commonly meant the change of the read-out against control, counted positive when it falls.

These data come from PubChem BioAssay AID1947 (The Scripps Research Institute Molecular Screening Center, 2009).
